These results are taken from ChEMBL document CHEMBL3297703, “Novel quinuclidinyl heteroarylcarbamate derivatives as muscarinic receptor antagonists” (Bioorg Med Chem, 2014).

Sequences of proteins named here, by UniProt entry; tags and fusion partners are left off. A change or cut given only in a name is not applied to a line headed by its entry.
UniProt P08482: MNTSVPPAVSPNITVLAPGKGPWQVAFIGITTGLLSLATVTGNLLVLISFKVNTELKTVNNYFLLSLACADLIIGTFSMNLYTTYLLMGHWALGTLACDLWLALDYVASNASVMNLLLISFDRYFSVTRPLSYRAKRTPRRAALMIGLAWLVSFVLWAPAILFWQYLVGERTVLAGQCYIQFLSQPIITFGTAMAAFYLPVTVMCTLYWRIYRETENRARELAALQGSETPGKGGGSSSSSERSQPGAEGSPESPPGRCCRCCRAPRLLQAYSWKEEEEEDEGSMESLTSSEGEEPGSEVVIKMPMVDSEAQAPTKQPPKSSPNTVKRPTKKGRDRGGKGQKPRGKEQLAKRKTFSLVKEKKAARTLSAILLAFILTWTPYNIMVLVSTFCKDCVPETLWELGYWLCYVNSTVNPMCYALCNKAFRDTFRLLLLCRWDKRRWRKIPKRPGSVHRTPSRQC
UniProt P08483, whole entry: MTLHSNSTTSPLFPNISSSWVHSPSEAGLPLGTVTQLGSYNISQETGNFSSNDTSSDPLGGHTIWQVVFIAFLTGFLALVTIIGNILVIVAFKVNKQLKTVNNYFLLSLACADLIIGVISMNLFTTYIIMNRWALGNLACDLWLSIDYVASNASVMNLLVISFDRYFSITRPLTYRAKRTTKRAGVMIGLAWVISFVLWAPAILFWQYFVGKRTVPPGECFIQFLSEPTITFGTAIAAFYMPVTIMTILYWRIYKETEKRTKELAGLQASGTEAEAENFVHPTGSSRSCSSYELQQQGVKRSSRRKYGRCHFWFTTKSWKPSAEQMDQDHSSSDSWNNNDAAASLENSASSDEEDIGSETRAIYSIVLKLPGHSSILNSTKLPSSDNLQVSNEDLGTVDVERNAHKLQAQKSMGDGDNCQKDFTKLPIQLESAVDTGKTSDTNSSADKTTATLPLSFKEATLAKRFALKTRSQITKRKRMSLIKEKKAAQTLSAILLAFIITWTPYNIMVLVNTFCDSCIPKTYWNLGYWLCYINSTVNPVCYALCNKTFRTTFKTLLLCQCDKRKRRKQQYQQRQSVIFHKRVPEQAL
UniProt P10980, whole entry: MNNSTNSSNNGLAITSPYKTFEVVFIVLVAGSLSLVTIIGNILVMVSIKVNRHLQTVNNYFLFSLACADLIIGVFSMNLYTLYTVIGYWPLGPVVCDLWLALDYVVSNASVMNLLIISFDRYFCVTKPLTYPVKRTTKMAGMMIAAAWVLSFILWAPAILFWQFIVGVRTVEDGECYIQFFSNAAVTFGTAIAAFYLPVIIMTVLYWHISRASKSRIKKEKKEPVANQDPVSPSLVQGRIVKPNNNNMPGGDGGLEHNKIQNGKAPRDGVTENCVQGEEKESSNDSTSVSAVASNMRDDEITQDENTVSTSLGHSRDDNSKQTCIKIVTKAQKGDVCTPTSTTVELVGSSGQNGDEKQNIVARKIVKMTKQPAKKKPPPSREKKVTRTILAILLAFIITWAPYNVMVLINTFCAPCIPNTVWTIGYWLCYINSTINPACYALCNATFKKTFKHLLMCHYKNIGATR

Experiment [1] has as its target Muscarinic acetylcholine receptor M1 (Rattus norvegicus, UniProt P08482). Kind of experiment: Displacement of [3H]-NMS from Sprague-Dawley rat muscarinic M1 receptor in cortex membrane. Type of experiment: cell membranes. An outline of the steps: (§1)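 Membranes from male Sprague-Dawley rat cerebral cortex (M1), heart (M2) or submandibular gland (M3), homogenised in 25 mM Tris pH 7.4 with 3.75 mM MgCl2, spun 1000 g. Incubated with [3H]NMS plus compound in Tris buffer, 25 °C, 2 h; filtered, counted. Nonspecific binding with 1 μM NMS. Ki from IC50; mean of duplicates.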
Background: Displacement assays read how much labelled ligand stays bound in the presence of the test substance.

Experiment [2] has as its target Muscarinic acetylcholine receptor M3 (Rattus norvegicus, UniProt P08483). In words: Displacement of [3H]-NMS from Sprague-Dawley rat muscarinic M3 receptor in submandibular gland. An outline of the steps: as §1
Experiment [3] has as its target Muscarinic acetylcholine receptor M2 (Rattus norvegicus, UniProt P10980). In words: Displacement of [3H]-NMS from Sprague-Dawley rat muscarinic M2 receptor in heart. In a few lines: as §1
The species entered for another experiment is Rattus norvegicus. In words: Ratio of ID50 for effect on CCh-induced salivation in Sprague-Dawley rat to ID50 for inhibition of CCh-induced bronchoconstriction Sprague-Dawley rat.

The structures appear in SMILES notation.

For the molecule `CC(C)[N+]1(C)C2CCC1CC(OC(=O)C(CO)c1ccccc1)C2` (centres undefined), the inhibition constant Ki in experiment [1] amounted to 0.29 nM; in experiment [2], 0.18 nM; in experiment [3], 0.78 nM.

For the molecule `C[N+]1(C)CCC(OC(=O)C(O)(c2ccccc2)C2CCCC2)C1.[Br-]` (centres undefined) [GLYCOPYRRONIUM BROMIDE], the Ratio in the experiment listed under Rattus norvegicus came out at 17.

A word on the Ki: it is the dissociation constant of the complex between target and ligand, obtained from inhibition or displacement.
